This note sets out measurements from patent US10993957B2 (NuCana plc, priority 2011, dated 2021).

The chains behind the UniProt entries cited, without tags or fusion partners. Where a name states a change or a piece, a line headed by the entry shows the natural chain unless it says otherwise.
UniProt P07650: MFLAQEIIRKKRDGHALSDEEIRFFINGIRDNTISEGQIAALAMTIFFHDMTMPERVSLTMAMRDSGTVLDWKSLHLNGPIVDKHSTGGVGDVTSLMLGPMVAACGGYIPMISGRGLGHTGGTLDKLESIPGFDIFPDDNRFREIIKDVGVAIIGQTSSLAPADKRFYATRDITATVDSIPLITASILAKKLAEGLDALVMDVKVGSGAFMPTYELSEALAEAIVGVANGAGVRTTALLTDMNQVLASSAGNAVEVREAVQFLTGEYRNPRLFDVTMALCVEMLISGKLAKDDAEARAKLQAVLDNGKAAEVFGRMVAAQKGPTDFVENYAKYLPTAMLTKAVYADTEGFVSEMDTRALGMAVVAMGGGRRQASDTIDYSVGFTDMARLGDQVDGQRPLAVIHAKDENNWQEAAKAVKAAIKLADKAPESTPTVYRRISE

For one data set, the target named is E. coli TP (Escherichia coli, UniProt P07650). The experiment in a line: Phosphorolysis by E. coli TP, HPLC. The settings on record: 100 μM compound, room temperature, 0-40 min. How it is done: Reaction mixtures containing 100 μM test compound and recombinant TP or UP (human TP: 8.6 ng/μL; E. coli TP: 3.0 ng/μL; human UP: 4 ng/mL) in a total volume of 500 μL reaction buffer (10 mM TrisHCl; 300 μM NaCl; 1 mM EDTA; 2 mM KH2PO4/K2HPO4) were incubated at room temperature. At different time points (i.e. 0, 20, 40 min) 100 μL aliquots of the reaction mixtures were withdrawn and heated at 95° C. for 3 min to inactivate the enzyme. The resulting reaction products were separated on a reverse-phase RP-8 column (Merck, Darmstadt, Germany) and quantified by HPLC analysis (Alliance 2690, Waters, Milford, Mass.). […] UV-based detection was performed at 267 nm. The separation of Urd from uracil was performed by a linear gradient from 100% separation buffer (see above) to 60% separation buffer+40% acetonitrile (3 min 100% separation buffer; 6 min linear gradient of 100% separation buffer to 60% separation buffer+40% acetonitrile; 6 min 60% separation buffer+40% acetonitrile, followed by equilibration at 100% separation buffer). UV-based detection was performed at 258 nm.

Another data set has as its target T1, human TP (Homo sapiens, UniProt P19971).
T1 sequence (P19971 11-482): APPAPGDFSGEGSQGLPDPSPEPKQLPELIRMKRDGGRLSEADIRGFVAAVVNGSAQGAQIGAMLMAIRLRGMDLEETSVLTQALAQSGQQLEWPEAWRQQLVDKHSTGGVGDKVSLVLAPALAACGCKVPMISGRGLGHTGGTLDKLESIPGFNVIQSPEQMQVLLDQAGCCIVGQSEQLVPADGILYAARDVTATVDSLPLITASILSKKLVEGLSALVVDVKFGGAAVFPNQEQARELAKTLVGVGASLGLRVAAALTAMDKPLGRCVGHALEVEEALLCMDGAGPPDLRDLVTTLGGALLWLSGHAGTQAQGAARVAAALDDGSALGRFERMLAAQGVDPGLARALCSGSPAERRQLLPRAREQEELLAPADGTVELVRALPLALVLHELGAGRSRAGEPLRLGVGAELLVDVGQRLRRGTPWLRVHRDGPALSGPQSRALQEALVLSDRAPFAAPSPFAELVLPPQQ
The data set is described as follows: Phosphorolysis by human TP, HPLC. As to conditions: 100 μM compound, room temperature, 0-40 min. How it is done:
Reaction mixtures containing 100 μM test compound and recombinant TP or UP (human TP: 8.6 ng/μL; E. coli TP: 3.0 ng/μL; human UP: 4 ng/mL) in a total volume of 500 μL reaction buffer (10 mM TrisHCl; 300 μM NaCl; 1 mM EDTA; 2 mM KH2PO4/K2HPO4) were incubated at room temperature. At different time points (i.e. 0, 20, 40 min) 100 μL aliquots of the reaction mixtures were withdrawn and heated at 95° C. for 3 min to inactivate the enzyme. […] The separation of Urd from uracil was performed by a linear gradient from 100% separation buffer (see above) to 60% separation buffer+40% acetonitrile (3 min 100% separation buffer; 6 min linear gradient of 100% separation buffer to 60% separation buffer+40% acetonitrile; 6 min 60% separation buffer+40% acetonitrile, followed by equilibration at 100% separation buffer).

Molecules are shown by their SMILES.

On to `O=c1ccn([C@@H]2O[C@H](CO)[C@@H](O)[C@H]2O)c(=O)[nH]1` [uridine, reference compound], for which the “Phosphorolysis by E. coli TP” value at E. coli TP was “not by E. coli TP”. The “Phosphorolysis by human TP” value on human TP is reported as “not by E. coli TP, or human TP”.
